## AlphaSeq binding of Ab-14 light chain variants to a spike HR2 peptide

From the AlphaSeq antibody data of Li et al. 2023 (doi:10.1038/s41467-023-39022-2), copy in the FLAb collection.

Antigen: PDVDLGDISGINAS, a 14-residue peptide of the SARS-CoV-2 spike HR2 region.

Parent: Ab-14, a human scFv built as VH, a (GGGGS)3 linker, VL. Only the CDRs of the light chain vary.
VH: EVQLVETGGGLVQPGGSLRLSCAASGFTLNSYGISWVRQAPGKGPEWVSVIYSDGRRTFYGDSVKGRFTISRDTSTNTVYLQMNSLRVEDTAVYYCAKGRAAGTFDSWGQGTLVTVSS
VL: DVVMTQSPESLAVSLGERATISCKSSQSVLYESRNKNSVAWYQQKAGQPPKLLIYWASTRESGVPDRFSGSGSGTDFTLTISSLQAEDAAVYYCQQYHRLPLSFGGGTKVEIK

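The parent was found by panning a naive human phage display library on the peptide. The variants were designed computationally from a first round of random CDR variants and then made and measured. Group labels follow the data file (Ctrl: baseline library sampled from a position-specific scoring matrix, with some repeated check sequences; Rand: our label for a block that the file lists under HC and that is probably the random mutants of the ten best first-round binders; En: ensemble of fine-tuned language models; GP: Gaussian process model; HC: hill climbing; Gen: genetic algorithm; Gibbs: Gibbs sampling; a sequence that several methods proposed may carry one label only). In AlphaSeq, yeast of one mating type display the scFv and yeast of the other type display the target. After mating in shaken culture at 30 °C for 16 h, diploids were selected and their barcode pairs sequenced. A regression on co-assayed BCL2-family reference pairs converts the normalised counts of each replicate to an apparent Kd. The assay was run in six technical replicates.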

Variants are written as CDR1, CDR2 and CDR3 of the light chain (limits as in the source). Parent: KSSQSVLYESRNKNSVA, WASTRES, QQYHRLPLS.
Values are log10 of the apparent Kd in nM; lower means stronger binding.
Replicates are averaged; those with no signal do not enter the mean.
A pair that was not seen in that replicate is written "n.d."; this usually means weak binding, but a binder can also be missed.
Three control strains display no target. For all light chain designs, 4% of the pairings with them gave a signal, with a median of 2.64 and one signal in twenty below 1.59, so weak values seen in few replicates may be background.
The authors' rule: three or more of the six replicates give a measured affinity, fewer mean a poor binder.
The range of this assay differs from that of the first round, and the authors advise against merging the two.
The parent sequence was in this pool as ten entries: three were never detected, three once, and four in most replicates, with averages from 0.34 to 2.37.

CDR-L1	CDR-L2	CDR-L3	group	log10 Kd (nM) by replicate	log10 Kd (nM), mean
KVSQSVLYESRNKMSVA	NASTRES	QQYHRLPLS	GP_Gen	0.04 0.06 0.02 -0.36 -0.28 0.08	-0.07
KSSQSGLYESREKNSVA	NASVRES	QIYARWPGS	Ctrl	n.d. n.d. n.d. n.d. n.d. n.d.	n.d.
KISSLTLYESVNKNNIA	EMSTRPS	QSYHRLPLS	En_HC	0.00 0.05 0.69 0.41 0.03 0.76	0.32
HSSQSVLYESRNKNSVA	WASTRED	QQYGRLPLS	Ctrl	1.11 0.80 1.07 0.66 2.08 0.85	1.09
KISQSVPAESRNKNSVA	WASTRES	QQYHRLLLS	Ctrl	n.d. 0.98 n.d. 1.74 1.33 0.97	1.26
MLSEVLHMLGVAKNSIA	DLVLRAN	QQYHRLPLF	En_Gen	n.d. n.d. 1.18 n.d. n.d. n.d.	1.18
KSSISYLYESRNTNSVA	EASTRES	HQYHRLPLS	Rand	0.68 0.98 0.76 0.32 0.57 0.80	0.69
KTEQGVLYESRNKNSVA	GASVRES	QQYHRLPLS	GP_HC	-0.12 -0.39 -0.54 -0.36 -0.58 -0.46	-0.41
AVSQSHLYESRNKNSVA	EASTREQ	QQYHRLPLS	GP_Gibbs	0.16 -0.14 0.10 -0.26 -0.29 0.07	-0.06
KISQSVLYEDRNLNSVA	WASTRES	QQHHRLPLS	Ctrl	n.d. n.d. n.d. n.d. 2.86 n.d.	2.86
IVSQLMIWGMHVKNSIA	EAQTRVN	QQYDRLPLM	En_Gen	1.52 n.d. 2.85 4.52 2.73 2.21	2.76
KLSQVTEYEMHNRDNVA	DLTTRGR	QDYHRLPLS	En_HC	0.11 0.19 0.26 -0.23 -0.27 0.09	0.03
NIRGVEFESAMMGNAVA	DMSLVMA	QQYFRLPLH	En_Gibbs	n.d. 1.02 n.d. 0.16 n.d. 1.24	0.81
KLSQQAEYESRNKNSVA	QASTREM	QQYHRLPLT	GP_Gibbs	-0.45 -0.34 -0.31 -0.27 -0.14 -0.12	-0.27
MITAMLRGVGRDKNSVA	NAQTREN	QHYHRLPLS	En_HC	n.d. n.d. n.d. n.d. n.d. n.d.	n.d.
QLLMATMQGQYNRNSVA	HAETRED	QSYHRLPLS	En_HC	n.d. 2.04 0.51 1.77 1.14 2.00	1.49
VLPDHELMLESQIHSIA	NETKRME	QQYSRLPLM	En_Gibbs	0.51 0.47 0.15 0.42 0.13 0.13	0.30
HLSQVVLYESRNKNSVA	NASTRES	GQYHRLPLS	GP_HC	1.25 1.66 n.d. n.d. 4.33 1.78	2.26
RITYKAEQLERHNSSVA	NGSARCF	QQYFMLPLS	En_Gibbs	1.46 1.69 1.52 1.86 1.24 1.53	1.55
KISINQSNYNGMRSAIA	NTNQARM	QQYFHLPLM	En_Gibbs	1.44 0.94 1.69 1.05 0.99 1.11	1.20
NISIKEPGNWMMMDSVA	HSSLRAE	QQYWRLPLM	En_Gibbs	0.75 0.31 0.48 0.28 0.42 0.55	0.47
QIYQAMHTLSQVKNNVA	DVNERGQ	QQYFRLPLS	En_Gen	0.50 0.48 0.48 0.45 0.44 0.82	0.53
KSEQSVLVESRNKNSVA	WASTRES	QQYHRLPLS	Ctrl	n.d. 1.95 n.d. 2.86 1.57 n.d.	2.13
KLQNSMLYESRNDNSVA	DASKRES	QQYHRLPLF	GP_Gibbs	0.11 -0.27 -0.24 -0.23 -0.28 -0.06	-0.16
KQSQSVLYESRNKNSVA	MASTRES	QQYHRLPLM	GP_HC	1.42 2.27 1.32 1.19 n.d. 2.28	1.70
KLPQSTMQESVSKNSVA	ELSTRGQ	QQYHRLPLS	En_HC	0.61 0.61 0.56 0.58 0.44 0.63	0.57
KLQFSCLYESRMPNSVA	NASTRYS	QQYHRLPLS	GP_Gibbs	0.26 0.04 0.07 -0.05 0.19 0.19	0.12
KLSQITGHMSVSKNNVA	EMVTRVN	QQYNRLPLS	En_Gen	0.38 0.57 0.48 0.53 0.55 0.60	0.52
KLSQSEEYESRQFNSVA	HASQRNL	QQYHRLPLS	GP_Gibbs	0.53 0.08 0.30 0.05 0.43 0.52	0.32
KLSQSVLYESRTKNGVA	NASTRES	QQYHRLPLS	GP_HC	-0.42 -0.68 -0.36 -0.63 -0.64 -0.43	-0.52
KLSMSDLYESRNKNSVA	GASTRES	QQYHRLPLS	GP_Gen	0.00 -0.09 -0.21 -0.39 -0.35 -0.22	-0.21
TISQMTSLFSQSINNVA	EVSTREK	QQYDRLPLV	En_Gen	0.91 1.19 0.64 1.17 0.86 1.36	1.02
MISDLTMYGSSNKNSVA	DLSTRGS	QQYHRLPLS	En_HC	-0.15 -0.02 0.31 -0.30 -0.26 -0.16	-0.10
KLVQSVLYESRNKNSVA	NASTRCS	QQYHRLPLS	GP_Gen	0.18 -0.12 -0.09 -0.34 -0.21 0.01	-0.10
KASQSVLYESRNSNSVA	WASTRET	QQYHRLPLW	Ctrl	n.d. n.d. n.d. n.d. n.d. n.d.	n.d.
TIGMFMDNLMQNRNNVA	DTSTLGN	QSYDRLPLS	En_Gen	1.63 1.23 1.19 1.49 1.21 2.09	1.47
KVSQSQLYESRNKNSVA	HASQRES	QQYHRLPLS	GP_Gen	-0.01 0.03 -0.36 -0.02 -0.15 0.05	-0.08
WLSMWEQSGTRGYSSVA	DTDARMA	QQYFRLPLS	En_Gibbs	0.60 0.49 0.55 0.18 0.28 0.58	0.45
MLGDVTQGLSRKHNSVA	DNSTREA	QQYDRLPLS	En_Gen	2.00 2.75 1.76 2.19 3.33 2.69	2.45
NVGQLMDGVSRNKNSVA	HQSTRED	QHYHRLPLS	En_HC	1.53 1.28 1.47 1.35 1.18 1.60	1.40

The first 3 variants above that were never detected:

CDR-L1	CDR-L2	CDR-L3	group	log10 Kd (nM) by replicate	log10 Kd (nM), mean
KSSQSGLYESREKNSVA	NASVRES	QIYARWPGS	Ctrl	n.d. n.d. n.d. n.d. n.d. n.d.	n.d.
MITAMLRGVGRDKNSVA	NAQTREN	QHYHRLPLS	En_HC	n.d. n.d. n.d. n.d. n.d. n.d.	n.d.
KASQSVLYESRNSNSVA	WASTRET	QQYHRLPLW	Ctrl	n.d. n.d. n.d. n.d. n.d. n.d.	n.d.